Test results from patent US9539222B2, “Methods to inhibit intracellular growth of bacteria and to treat bacteria-mediated diseases” (priority 2012, dated 2017).

System: Mycobacterium tuberculosis (MTB)
Experiment: Acute infection model of MTB in C57BL/6 mice, lung and spleen bacillary load (CFU)
Format: in vivo
Settings: for lung bacillary load vs control: first experiment

Structure (SMILES): CN(C)C(=N)NC(=N)N.Cl [Metformin, N,N-dimethyl imidodicarbonimidic diamide hydrochloride]
- lung bacillary load vs control (250 mg/Kg oral, day 21 post-infection): not
- lung bacillary load vs control (250 mg/Kg oral, day 35 post-infection): significantly less
- bacteria in the spleen compared to ethionamide alone (500 mg/Kg Metformin and 15 mg/Kg ethionamide, day 35 post-infection): significantly less
- lung CFU vs control mice (500 mg/Kg oral, another experiment (day 35)): less
- lung bacillary load vs control (500 mg/Kg oral, day 21 and 35 post-infection): significantly less
- lung bacillary load, Metformin alone (500 mg/Kg, ethionamide experiment, day 35, reduction equivalent to 10 mg/Kg ETH): decreased
- MTB CFU in the spleen compared to control mice (250 or 500 mg/Kg oral, day 21 and 35 post-infection): significantly less
